Laboratory results reported in US10487148B2, “Methods and compositions for treating aging-associated impairments” (THE BOARD OF TRUSTEES OF THE LELAND STANFORD JUNIOR …, priority 2010, dated 2019).

Key:
Type in all cases: in vivo, mouse
[1] = test system: young adult (3 months) mice; experiment: Radial arm water maze (RAWM), spatial learning and memory; details: vs vehicle
Procedure: (§1) Animals were placed in a stereotaxic frame and anesthetized with 2% isoflurane (2 L/min oxygen flow rate) delivered through an anesthesia nose cone. Ophthalmic eye ointment (Puralube Vet Ointment, Dechra) was applied to the cornea to prevent desiccation during surgery. The area around the incision was trimmed. Solutions were injected bilaterally into the DG of the dorsal hippocampi using the following coordinates: (from bregma) anterior=−2 mm, lateral=1.5 mm, (from skull surface) height=−2.1 mm. A 2 μl volume was injected stereotaxically over 10 minutes (injection speed: 0.20 μl/min) using a 5 μl 26s gauge Hamilton syringe. To limit reflux along the injection track, the needle was maintained in situ for 8 minutes, slowly pulled out half way and kept in position for an additional two minutes. The skin was closed using silk suture. Each mouse was injected subcutaneously with the analgesic Buprenex. Mice were single-housed and monitored during recovery.
(§2) Carrier free purified human β2-Microglobulin (Lee Biosolutions) was dissolved in PBS and administered systemically (100 μg/kg) via intraorbital in young (3 months) wild type animals, or stereotaxically (0.50 μl; 0.1 μg/μl) into the DG of the hippocampus in young (3 months) wild type and Tap1^−/− mutant. For histological analysis B2M and vehicle were administered into contralateral DG of the same animal. For behavioral analysis B2M or vehicle were administered bilaterally into the DG and mice were allowed to recover for six or 30 days prior to cognitive testing.
Spatial learning and memory was assessed using the radial arm water maze (RAWM) paradigm following the protocol described by Alamed et al. Nat. Protocols (2006) 1: 1671-1679). In this task the goal arm location containing a platform remains constant throughout the training and testing phase, while the start arm is changed during each trial. On day one during the training phase, mice are trained for 15 trails, with trials alternating between a visible and hidden platform. On day two during the testing phase, mice are tested for 15 trials with a hidden platform. Entry into an incorrect arm is scored as an error, and errors are averaged over training blocks (three consecutive trials). Investigators were blinded to genotype and treatment when scoring.

[2] = test system: young adult (3 months) mice; experiment: Contextual and cued fear conditioning; details: vs vehicle; for cued memory (freezing on re-exposure to conditioned stimulus in novel context): 24 hours after training
Procedure: as §1, §2
In this task, mice learned to associate the environmental context (fear conditioning chamber) with an aversive stimulus (mild foot shock; unconditioned stimulus, US) enabling testing for hippocampal-dependent contextual fear conditioning. As contextual fear conditioning is hippocampus and amygdala dependent, the mild foot shock was paired with a light and tone cue (conditioned stimulus, CS) in order to also assess amygdala-dependent cued fear conditioning. […] Specific training parameters are as follows: tone duration is 30 seconds; level is 70 dB, 2 kHz; shock duration is 2 seconds; intensity is 0.6 mA. This intensity is not painful and can easily be tolerated but will generate an unpleasant feeling. More specifically, on day 1 each mouse was placed in a fear-conditioning chamber and allowed to explore for 2 minutes before delivery of a 30-second tone (70 dB) ending with a 2-second foot shock (0.6 mA). Two minutes later, a second CS-US pair was delivered. On day 2 each mouse was first placed in the fear-conditioning chamber containing the same exact context, but with no CS or foot shock. Freezing was analyzed for 1-3 minutes. […] Freezing was analyzed for 1-3 minutes. Freezing was measured using a FreezeScan video tracking system and software (Cleversys, Inc).

[3] = test system: Dcx-positive and Mcm2-positive cells in the dentate gyrus (DG); experiment: Neurogenesis in the dentate gyrus by immunohistochemistry (Dcx, Mcm2); details: for number of Dcx-positive cells in the DG: B2M stereotaxically into right DG vs vehicle in contralateral DG
Procedure: as §1, §2
Tissue processing and immunohistochemistry was performed on free-floating sections following standard published techniques (Villeda, S. A., et al., “The ageing systemic milieu negatively regulates neurogenesis and cognitive function,” Nature (2011) 477: 90-94). Briefly, mice were anesthetized with 400 mg/kg chloral hydrate (Sigma-Aldrich) and transcardially perfused with 0.9% saline. Brains were removed and fixed in phosphate-buffered 4% paraformaldehyde, pH 7.4, at 4° C. for 48 h before they were sunk through 30% sucrose for cryoprotection. Brains were then sectioned coronally at 40 μm with a cryomicrotome (Leica Camera, Inc.) and stored in cryoprotective medium. […] To estimate the total number of Dcx positive cells per DG immunopositive cells in the granule cell and subgranular cell layer of the DG were counted in every sixth coronal hemibrain section through the hippocampus for a total of six sections and multiplied by 12.

[4] = test system: BrdU-positive cells in the dentate gyrus (DG); experiment: BrdU labeling of proliferating cells in the dentate gyrus; details: systemic B2M, intraorbital injections, young adult mice, vs vehicle
Procedure: as §2
For short term Brdu labeling 50 mg/kg of BrdU was injected intraperitoneally into mice daily either three or six days before sacrifice. For long term BrdU labeling 50 mg/kg of BrdU was injected into mice once a day for six days and animals were sacrificed 28 days after first administration. […] The number of BrdU-positive cells in the granule cell and subgranular cell layer of the DG were counted and multiplied by 12 to estimate the total number of BrdU-positive cells in the entire DG. To determine the fate of dividing cells a total of 200 BrdU-positive cells across 4-6 sections per mouse were analyzed by confocal microscopy for co-expression with NeuN and GFAP. The number of double-positive cells was expressed as a percentage of BrdU-positive cells. […]

[5] = General health and weight after systemic B2M administration; details: young adult mice, systemic B2M (100 μg/kg) by intraorbital injections vs vehicle
Procedure: as §2

[6] = local B2M, bilateral stereotaxic injections into DG
[7] = systemic B2M, intraorbital injections, young adult mice
[8] = systemic B2M, intraorbital injections, young adult mice, vs vehicle

β2-Microglobulin [B2M]
errors in locating the target platform, RAWM testing phase [1, 6]: significantly more errors | learning capacity, RAWM training phase [1, 6]: similar | errors in locating the target platform, RAWM testing phase [1, 7]: significantly more errors | learning capacity for the task, RAWM training phase [1, 7]: similar | freezing time during contextual memory testing [2, 6]: decreased freezing time | cued memory (freezing on re-exposure to conditioned stimulus in novel context) ([2]; local B2M, bilateral stereotaxic injections six days prior to testing): No differences in cued memory | cued memory (freezing on re-exposure to conditioned stimulus in novel context) ([2]; systemic B2M, intraorbital injections five times over 10 days): No differences in cued memory | freezing time during contextual memory testing ([2]; systemic B2M, intraorbital injections, young adult mice, 24 h after training): decreased freezing time | number of Dcx-positive cells in the DG ([3]; Tap1−/− young adult mice): No difference | number of Doublecortin (Dcx)-positive newly born neurons in the DG [3, 8]: significant decrease | number of Mcm2-positive progenitors in the DG [3, 8]: significant decrease | number of Dcx-positive cells in the DG ([3]; wild type young adult mice): decrease | number of proliferating cells having incorporated BrdU [4]: decrease | signs of illness or weight loss [5]: no signs of illness or weight loss
